Our source for the IC50 values is patent US10138229B2, “Heteroaromatic compounds as BTK inhibitors” (Boehringer Ingelheim International GmbH, priority 2012, dated 2018).

Amino acid sequences for entries named in this document (tags omitted). Residues count along the entry.
UniProt Q06187, whole entry: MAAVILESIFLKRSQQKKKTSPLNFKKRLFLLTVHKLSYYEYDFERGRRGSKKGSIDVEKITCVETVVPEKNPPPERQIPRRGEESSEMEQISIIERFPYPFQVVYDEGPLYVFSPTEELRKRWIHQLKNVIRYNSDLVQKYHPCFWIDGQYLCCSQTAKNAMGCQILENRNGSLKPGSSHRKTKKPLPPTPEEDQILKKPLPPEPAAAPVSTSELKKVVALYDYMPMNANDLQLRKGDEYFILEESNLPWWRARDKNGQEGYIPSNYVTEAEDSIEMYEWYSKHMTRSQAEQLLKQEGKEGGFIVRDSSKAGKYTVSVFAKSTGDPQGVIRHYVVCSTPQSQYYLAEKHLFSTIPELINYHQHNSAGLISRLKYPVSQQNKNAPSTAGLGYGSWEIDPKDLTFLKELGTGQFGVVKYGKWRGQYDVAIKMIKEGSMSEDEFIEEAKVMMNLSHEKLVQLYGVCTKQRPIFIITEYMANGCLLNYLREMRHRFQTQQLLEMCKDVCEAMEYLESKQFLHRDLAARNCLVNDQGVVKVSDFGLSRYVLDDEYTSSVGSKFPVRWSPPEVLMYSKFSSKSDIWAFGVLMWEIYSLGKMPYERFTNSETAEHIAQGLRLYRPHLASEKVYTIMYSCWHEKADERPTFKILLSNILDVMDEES
UniProt P00533, 25-1210 limits assumed: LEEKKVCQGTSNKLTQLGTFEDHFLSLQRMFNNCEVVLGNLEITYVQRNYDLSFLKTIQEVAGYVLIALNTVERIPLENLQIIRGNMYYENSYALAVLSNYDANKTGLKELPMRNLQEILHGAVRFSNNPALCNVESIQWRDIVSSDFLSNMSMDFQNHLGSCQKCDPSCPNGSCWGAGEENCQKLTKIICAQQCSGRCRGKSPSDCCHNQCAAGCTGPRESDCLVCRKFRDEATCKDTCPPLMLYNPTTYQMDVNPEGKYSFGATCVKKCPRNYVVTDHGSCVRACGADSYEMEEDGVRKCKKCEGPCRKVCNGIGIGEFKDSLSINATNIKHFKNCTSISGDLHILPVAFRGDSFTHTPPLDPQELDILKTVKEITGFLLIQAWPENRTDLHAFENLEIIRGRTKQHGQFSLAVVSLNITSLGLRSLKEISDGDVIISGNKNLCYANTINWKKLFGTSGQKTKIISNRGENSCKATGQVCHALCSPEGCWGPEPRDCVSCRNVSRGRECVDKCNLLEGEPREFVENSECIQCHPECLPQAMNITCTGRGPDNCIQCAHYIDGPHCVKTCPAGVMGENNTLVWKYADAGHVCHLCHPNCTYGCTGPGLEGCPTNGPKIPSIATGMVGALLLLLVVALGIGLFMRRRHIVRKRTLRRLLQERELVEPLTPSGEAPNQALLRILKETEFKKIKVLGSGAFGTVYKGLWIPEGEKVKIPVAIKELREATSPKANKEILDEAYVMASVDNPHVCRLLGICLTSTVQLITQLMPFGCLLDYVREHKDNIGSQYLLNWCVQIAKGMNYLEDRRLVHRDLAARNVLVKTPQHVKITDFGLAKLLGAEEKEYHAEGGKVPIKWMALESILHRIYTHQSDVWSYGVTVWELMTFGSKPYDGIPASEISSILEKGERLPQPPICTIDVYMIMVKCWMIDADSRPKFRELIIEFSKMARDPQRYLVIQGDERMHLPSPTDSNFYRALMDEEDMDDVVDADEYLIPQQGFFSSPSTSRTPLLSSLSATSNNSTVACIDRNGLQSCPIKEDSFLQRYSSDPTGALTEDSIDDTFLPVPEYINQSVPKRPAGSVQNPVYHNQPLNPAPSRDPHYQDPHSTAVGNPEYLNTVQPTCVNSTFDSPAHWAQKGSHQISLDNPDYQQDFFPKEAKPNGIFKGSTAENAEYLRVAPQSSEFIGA

Assay [1] addresses full-length human His-tagged BTK (Homo sapiens (Human), UniProt Q06187). Briefly: BTK Assay (HTRF, Cisbio KinEASE-TK). The format is biochemical. The conditions noted are these: read-out: BTK IC50; 6 nM BTK, 30 uM ATP, 15 min preincubation.
The target of another assay is BTK (Homo sapiens (Human), UniProt Q06187). Briefly: Inhibition of B-cell activation measured by CD69 expression in primary CD19+ cells. The conditions noted are these: read-out: B-cell CD69 IC50; primary CD19+ cells stimulated with anti-human IgD, CD69 expression by flow cytometry. The format is cell-based.
The next assay deals with EGFR (Homo sapiens (Human), UniProt P00533). Briefly: Inhibition of EGFR autophosphorylation in A431 human epithelial cells stimulated with EGF. The conditions noted are these: read-out: A431 p-EGFR IC50, EGF 60 ng/mL, phospho EGFR.

Structures are written as SMILES.

`C=CC(=O)N1CC[C@]2(C1)C[C@H](n1nc(-c3ccc(OCCC)c(Cl)c3)c(C(N)=O)c1N)C2`: the IC50 in assay [1] was determined as 3.5 nM.
As to `CC#CC(=O)N1CC2(CC(n3nc(-c4ccc(OC5CC5)cc4)c(C(N)=O)c3N)C2)C1`, the values for the IC50 (in assay [1]; at BTK; on EGFR) were 4.3 nM, 24 nM and 6300 nM, respectively.
